Values of other authors as cited in US10336734B2.
pIC50, pKi: −log10 of the molar value. Like-named read-outs stand apart in the source and are kept apart here.

The chains behind the UniProt entries cited, without tags or fusion partners.
UniProt Q07912, whole entry: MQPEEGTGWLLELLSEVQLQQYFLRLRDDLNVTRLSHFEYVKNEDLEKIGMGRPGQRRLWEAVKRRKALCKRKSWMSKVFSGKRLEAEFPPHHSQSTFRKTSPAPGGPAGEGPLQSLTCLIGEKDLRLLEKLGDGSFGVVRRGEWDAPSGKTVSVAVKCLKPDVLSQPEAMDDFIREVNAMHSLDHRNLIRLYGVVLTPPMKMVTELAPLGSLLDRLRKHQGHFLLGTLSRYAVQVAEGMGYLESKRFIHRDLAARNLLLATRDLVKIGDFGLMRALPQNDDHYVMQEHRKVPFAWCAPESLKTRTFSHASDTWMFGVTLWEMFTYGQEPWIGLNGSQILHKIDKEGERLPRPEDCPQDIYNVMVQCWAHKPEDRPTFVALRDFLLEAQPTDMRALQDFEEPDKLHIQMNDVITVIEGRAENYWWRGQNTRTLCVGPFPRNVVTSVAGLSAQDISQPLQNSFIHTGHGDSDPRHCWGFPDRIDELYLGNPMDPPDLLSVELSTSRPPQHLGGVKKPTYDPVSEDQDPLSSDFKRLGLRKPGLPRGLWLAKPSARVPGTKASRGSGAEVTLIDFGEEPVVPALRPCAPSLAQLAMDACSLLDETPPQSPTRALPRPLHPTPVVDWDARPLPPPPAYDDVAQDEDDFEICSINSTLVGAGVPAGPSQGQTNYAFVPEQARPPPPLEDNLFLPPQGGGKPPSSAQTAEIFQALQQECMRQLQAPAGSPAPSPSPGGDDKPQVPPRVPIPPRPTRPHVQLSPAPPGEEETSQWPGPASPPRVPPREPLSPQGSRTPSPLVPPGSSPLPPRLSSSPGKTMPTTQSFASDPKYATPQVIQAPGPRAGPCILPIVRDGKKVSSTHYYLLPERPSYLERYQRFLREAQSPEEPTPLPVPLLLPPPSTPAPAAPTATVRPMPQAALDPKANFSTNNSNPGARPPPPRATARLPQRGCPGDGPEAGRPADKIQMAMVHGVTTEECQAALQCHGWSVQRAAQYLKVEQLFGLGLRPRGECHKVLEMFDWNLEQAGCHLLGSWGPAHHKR

Legend:
[1] = cited from earlier work
ACK1 [2] = target: T1, ACK1 (Homo sapiens (Human), UniProt Q07912); conditions: cited from earlier work
[3] = system: cell line which is dependent upon ACK1; conditions: read-out: IC50, growth of ACK1-dependent cell line; cited from earlier work
ACK1 [4] = target: T1, ACK1; conditions: read-out: IC50, inhibition of ACK1 autophosphorylation in intact cells; cited from earlier work

In the case of `COc1cc(Oc2ccccc2)ccc1-c1nc([C@H]2C[C@@](C)(O)C2)n2ccnc(N)c12` (relative stereo), the Oral bioavailability ([1]; mouse models) is given as “orally bioavailable”.
In the case of `CN(C)CCOc1ccc(-c2oc3ncnc(NCC4SCCS4)c3c2-c2ccccc2)cc1`, the pKi (ACK1 [2]; read-out: Ki ACK1) is listed as 9.52, the pIC50 [3] is listed as 8.30 and the pharmacokinetic properties ([1]; in vivo) is listed as “poor pharmacokinetic properties”.
In the case of `COC(C)(C)CCn1nc(Nc2c(C)cccc2C)c2cnc(Nc3ccccc3)nc21`, the pIC50 (ACK1 [2]; read-out: IC50 ACK1 in vitro) is given as 8.70 and the pIC50 (ACK1 [4]) is given as 7.70.
